The results in this text go back to patent publication US20210047394A1 (Hoffmann-La Roche, published 2021).

By UniProt entry, the sequences of proteins in these tests, tags left out. Chains listed by the source or under a name are the forms on record and can include a tag or linker.
huVEGF121 (R&D Systems, UK, Cat. No. 298-VS), UniProt P15692, other isoform, or with tags, fused parts or gaps limits assumed: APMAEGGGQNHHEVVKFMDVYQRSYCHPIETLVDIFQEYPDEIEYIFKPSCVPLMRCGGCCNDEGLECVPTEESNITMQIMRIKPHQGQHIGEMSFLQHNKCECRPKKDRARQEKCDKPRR
rhVEGF (R&D Systems Cat. No. 293-VE), UniProt P15692, other isoform, or with tags, fused parts or gaps limits assumed: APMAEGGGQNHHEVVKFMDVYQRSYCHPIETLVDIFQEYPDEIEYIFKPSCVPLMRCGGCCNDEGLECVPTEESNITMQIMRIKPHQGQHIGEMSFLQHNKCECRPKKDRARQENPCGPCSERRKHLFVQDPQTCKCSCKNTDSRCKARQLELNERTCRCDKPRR

Test [1] addresses T1, huVEGF121 (R&D Systems, UK, Cat. No. 298-VS) (human, UniProt P15692-9 27-147).
T1 construct: domain: VEGF121; also called hVEGF
Nature of the test: inhibition of huVEGF121 binding to coated hVEGF-R (ELISA).

For test [2], the target named is T2, rhVEGF (R&D Systems Cat. No. 293-VE) (human, UniProt P15692 181-395).
T2 construct: Analyte in the Biacore assays; also called VEGF-A
Nature of the test: SPR (Biacore T100), antibody captured via anti-hIgG-Fc, VEGF analyte, 25 C. Background: In SPR one partner is held on a chip, and binding of the other changes the refractive index at the surface.

For test [3], the target named is T2, rhVEGF (R&D Systems Cat. No. 293-VE). Nature of the test: SPR (Biacore T100), antibody captured via anti-human IgG, rhVEGF analyte, 37 C.

B1: <VEGF> HuMab G6-31 (antibody, V domains shown)
VH: EVQLVESGGGLVQPGGSLRLSCAASGFTISDYWIHWVRQAPGKGLEWVAGITPAGGYTYYADSVKGRFTISADTSKNTAYLQMNSLRAEDTAVYYCARFVFFLPYAMDYWGQGTLVTVSS
VL: DIQMTQSPSSLSASVGDRVTITCRASQDVSTAVAWYQQKPGKAPKLLIYSASFLYSGVPSRFSGSGSGTDFTLTISSLQPEDFATYYCQQGYGNPFTFGQGTKVEIK
notes: 'standard' human IgG1 antibody; also called <VEGF> G6-31; G6-31 (1000)
Usually IC50 stands for the midpoint of a concentration-inhibition curve. Broadly, the Kd is the free concentration of one partner at which half of the binding sites on the other are occupied at equilibrium, for simple one-to-one binding. Read a high Kd as lower affinity. By koff is commonly meant the first-order rate constant of dissociation. A higher koff goes with fast dissociation. In general, kon refers to the second-order rate constant of association. High values mean fast association, low ones slow association. B1 showed an IC50 in test [1] of 1.43 µg/mL. The Kd in test [2] is < 100 pM. Further, in test [3], the Kd came out at 1.93 pM, the koff stood at 9.33e-06 s⁻¹, the kon stood at 4.83e+06 M⁻¹ s⁻¹ and the t1/2 was 20.6 h.
